Two molecules from patent publication US20180072675A1, “ANTIMICROBIAL PYRIDINOHYDRAZIDE AND HYDRAZOMETHYLPYRIDINE-BASED AGENTS” (Board of Supervisors of Louisiana State University and …, priority 2015, published 2018) can be followed below.

The test system of the assay is protozoal proliferation. Briefly: Protozoal proliferation. To be noted: FIG. 27. The class given is cell-based.

`O=C(N/N=C/c1ccccc1O)c1ccncc1` [SA81]: the “effect on protozoal proliferation” value was “reduce protozoal proliferation”. With `O=C(N/N=C/c1ccccc1O)c1ccc[n+]([O-])c1` [SA82], the “effect on protozoal proliferation” value is reported as “reduce protozoal proliferation”.
